For 4 compounds, Ki and ED50 results are on record in ChEMBL document CHEMBL1142735, “Discovery of a new series of centrally active tricyclic isoxazoles combining serotonin (5-HT) reuptake inhibition with alpha2-adrenoceptor blocking activity” (J Med Chem, 2005).

By UniProt entry, the sequences of proteins in these tests, tags left out.
UniProt P08913, whole entry: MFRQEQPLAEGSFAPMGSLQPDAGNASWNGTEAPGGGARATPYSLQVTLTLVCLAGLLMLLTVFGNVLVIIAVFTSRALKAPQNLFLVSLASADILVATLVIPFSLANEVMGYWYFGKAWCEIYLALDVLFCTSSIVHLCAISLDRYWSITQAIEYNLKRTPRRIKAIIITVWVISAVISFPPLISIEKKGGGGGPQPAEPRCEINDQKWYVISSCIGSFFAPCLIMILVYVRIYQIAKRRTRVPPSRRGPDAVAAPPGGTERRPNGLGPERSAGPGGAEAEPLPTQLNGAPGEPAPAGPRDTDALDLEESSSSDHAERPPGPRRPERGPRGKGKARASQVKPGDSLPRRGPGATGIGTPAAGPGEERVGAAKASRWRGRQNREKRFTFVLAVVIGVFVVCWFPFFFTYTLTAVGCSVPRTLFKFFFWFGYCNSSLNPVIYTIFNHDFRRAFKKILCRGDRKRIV

The target in assay [1] is T1, Alpha-2A adrenergic receptor (Homo sapiens, UniProt P08913). Nature of the assay: Binding affinity for Alpha-2A adrenergic receptor.
A short description of assay [2]: Effective dose for antagonism of pCA-induced excitation by subcutaneous administration. To be noted: Rattus norvegicus.
The target of assay [3] is T1, Alpha-2A adrenergic receptor. Briefly: Inhibition of [3H]- rauwolscine binding to human alpha-2A adrenergic receptor.
Assay [4] shares this target. Nature of the assay: Binding affinity for alpha-2A-adrenergic receptor. The format is functional, Rattus norvegicus.

One may read the Ki as the equilibrium dissociation constant of an inhibitor or competing ligand from its target. A lower Ki goes with a stronger hold on the target. One may read the ED50 as the dose at which the effect has come halfway, by size or by number of responders. Turning to `CN1C[C@@H]2C(=NO[C@H]2CN2CCN(C/C=C/c3ccccc3)CC2)c2ccccc21`, the Ki in assay [1] came to 1.6 nM. In assay [2], this compound displayed an ED50 of over 10 mg/kg.
The compound `COc1cccc2c1CCC[C@H]2CN(C)CCc1ccc2ccoc2c1` gave a Ki in assay [3] of 2.5 nM.
As for `COc1cc2c(cc1OC)C1=NO[C@@H](CN3CCN(Cc4ccc5ccccc5c4)CC3)[C@@H]1CO2`, in assay [4], the Ki was 5 nM.
Regarding `COc1cc2c(cc1OC)C1=NO[C@@H](CN3CCN(C/C=C(\C)c4ccccc4)CC3)[C@@H]1CO2`, the Ki in assay [4] was 1.4 nM.
